# Measured values as given in publication PMC12655037, “Mitochondrial-Targeted Triphenylphosphonium-Conjugated Ionophores with Enhanced Cytotoxicity in Cancer Cells” (Molecules, 2025).
# How the values were obtained:
# [1] = test system: MDA-MB-231 cells
# [2] = test system: MiaPaCa human pancreas cancer cells; assay: MTT assay, MiaPaCa cells; format: cell-based; details: for IC50: Homo sapiens, MIA PaCa-2, 72 h, read-out: IC50 MiaPaCa
# [3] = test system: A549 human lung cancer cells; assay: MTT assay, A549 cells; format: cell-based
# [4] = test system: PC3 human metastatic prostate cancer cells; assay: MTT assay, PC3 cells; format: cell-based
# [5] = test system: A549 cells
# [6] = test system: SW620 human metastatic colon cancer cells; assay: MTT assay, SW620 cells; format: cell-based
# [7] = test system: SW480 human primary colon cancer cells; assay: MTT assay, SW480 cells; format: cell-based
# [8] = test system: MDA-MB-231 human breast cancer cells; assay: MTT assay, MDA-MB-231 cells; format: cell-based; details: for IC50: Homo sapiens, MDA-MB-231, 72 h, read-out: IC50 MDA-MB-231
# [9] = test system: V79 Chinese hamster lung fibroblasts; assay: MTT assay, V79 cells; format: cell-based; details: Cricetulus griseus, Fibroblast, 72 h, read-out: IC50 V79 (normal cells)
# [10] = test system: HaCaT human immortal keratinocytes; assay: cells; format: cell-based; details: 72 h, read-out: IC50 HaCaT (normal cells)
Compound,mitochondrial ROS (mtROS) production [1],Selectivity index (SI) HaCaT / MiaPaCa [2],Selectivity index (SI) V79 / MiaPaCa [2],IC50 [2] [µM],Selectivity index (SI) HaCaT / A549 [3],Selectivity index (SI) V79 / A549 [3],Selectivity index (SI) HaCaT / PC3 [4],Selectivity index (SI) V79 / PC3 [4],mitochondrial ROS (mtROS) production [5],Selectivity index (SI) HaCaT / SW620 [6],Selectivity index (SI) V79 / SW620 [6],Selectivity index (SI) HaCaT / SW480 [7],Selectivity index (SI) V79 / SW480 [7],Selectivity index (SI) HaCaT / MDA-MB-231 [8],Selectivity index (SI) V79 / MDA-MB-231 [8],IC50 [8] [µM],IC50 [9] [µM],IC50 [10] [µM]
CC[C@@H](C(=O)[C@@H](C)[C@@H](O)[C@H](C)[C@@H]1O[C@@H]([C@@H](CC)C(=O)O)CC[C@@H]1C)[C@H]1O[C@]2(C=C[C@H](n3cc(C[P+](c4ccccc4)(c4ccccc4)c4ccccc4)nn3)[C@]3(CC[C@@](C)([C@H]4CC[C@](O)(CC)[C@H](C)O4)O3)O2)[C@H](C)C[C@@H]1C [1a],induced mtROS production,0.5,0.6,7.6 ± 1.3,1.3,1.7,3.2,4,induced mtROS production,0.2,0.3,0.4,0.5,1.1,1.4,3.4 ± 0.5,,
CCCC[P+](CCCC)(CCCC)Cc1cn(CC2(O)OC(C3CC(C)C(C4(CC)CCC(C5(C)CCC6(CC(O)C(C)C(C(C)C(OC)C(C)C(=O)O)O6)O5)O4)O3)C(C)CC2C)nn1 (stereo not drawn) [2d],,1.0,2.6,1.6 ± 0.3,1.1,3.0,0.5,1.4,,0.4,1.0,0.5,1.2,1.1,3.0,1.4 ± 0.2,4.2 ± 1.4,1.6 ± 0.2
CC[C@@H](C(=O)[C@@H](C)[C@@H](O)[C@H](C)[C@@H]1O[C@@H]([C@@H](CC)C(=O)O)CC[C@@H]1C)[C@H]1O[C@]2(C=C[C@H](n3cc(CNC(=O)CCC[P+](c4ccccc4)(c4ccccc4)c4ccccc4)nn3)[C@]3(CC[C@@](C)([C@H]4CC[C@](O)(CC)[C@H](C)O4)O3)O2)[C@H](C)C[C@@H]1C [1c],,0.5,1.2,14.1 ± 1.5,0.5,1.1,0.6,1.3,,0.5,1.2,0.7,1.7,0.6,1.5,11.4 ± 1.3,,
CC[C@@H](C(=O)[C@@H](C)[C@@H](O)[C@H](C)[C@@H]1O[C@@H]([C@@H](CC)C(=O)O)CC[C@@H]1C)[C@H]1O[C@]2(C=C[C@H](NC(=O)CCC[P+](c3ccccc3)(c3ccccc3)c3ccccc3)[C@]3(CC[C@@](C)([C@H]4CC[C@](O)(CC)[C@H](C)O4)O3)O2)[C@H](C)C[C@@H]1C [1e],,1.3,1.4,6.4 ± 0.2,1.6,1.7,2.1,2.2,,0.8,0.8,0.8,0.8,1.2,1.3,6.7 ± 1.2,,
CCC1(C2OC(C3OC(O)(Cn4cc(COC(=O)CCC[P+](c5ccccc5)(c5ccccc5)c5ccccc5)nn4)C(C)CC3C)CC2C)CCC(C2(C)CCC3(CC(O)C(C)C(C(C)C(OC)C(C)C(=O)O)O3)O2)O1 (stereo not drawn) [2b],,1.0,6.3,1.1 ± 0.3,0.3,2.0,1.6,9.9,,0.7,4.6,1.4,8.6,0.6,4.1,1.7 ± 0.1,6.9 ± 1.9,1.1 ± 0.5
CC[C@@H](C(=O)[C@@H](C)[C@@H](O)[C@H](C)[C@@H]1O[C@@H]([C@@H](CC)C(=O)OCCCCCC[P+](c2ccccc2)(c2ccccc2)c2ccccc2)CC[C@@H]1C)[C@H]1O[C@]2(C=C[C@@H](OC(=O)CCC(=O)OCCCCCC[P+](c3ccccc3)(c3ccccc3)c3ccccc3)[C@]3(CC[C@@](C)([C@H]4CC[C@](O)(CC)[C@H](C)O4)O3)O2)[C@H](C)C[C@@H]1C [1f],induced mtROS production,,,,,,,,induced mtROS production,,,,,,,,,
CCCC[P+](CCCC)(CCCC)Cc1cn([C@H]2C=C[C@]3(O[C@H]([C@@H](CC)C(=O)[C@@H](C)[C@@H](O)[C@H](C)[C@@H]4O[C@@H]([C@@H](CC)C(=O)O)CC[C@@H]4C)[C@@H](C)C[C@H]3C)O[C@@]23CC[C@@](C)([C@H]2CC[C@](O)(CC)[C@H](C)O2)O3)nn1 [1d],,0.8,1.7,2.9 ± 0.6,0.7,1.3,0.7,1.3,,1.3,2.7,1.0,1.9,0.5,1.0,5 ± 0.3,,
CC[C@@H](C(=O)[C@@H](C)[C@@H](O)[C@H](C)[C@@H]1O[C@@H]([C@@H](CC)C(=O)O)CC[C@@H]1C)[C@H]1O[C@]2(C=C[C@H](n3cc(COC(=O)CCC[P+](c4ccccc4)(c4ccccc4)c4ccccc4)nn3)[C@]3(CC[C@@](C)([C@H]4CC[C@](O)(CC)[C@H](C)O4)O3)O2)[C@H](C)C[C@@H]1C [1b],,0.3,0.5,8.5 ± 1.5,0.7,1.2,0.5,0.8,,0.2,0.3,0.3,0.5,0.5,0.9,5.2 ± 0.2,,
"CC[C@@H](C(=O)[C@@H](C)[C@@H](O)[C@H](C)[C@@H]1O[C@@H]([C@@H](CC)C(=O)O)CC[C@@H]1C)[C@H]1O[C@]2(C=C[C@@H](O)[C@]3(CC[C@@](C)([C@H]4CC[C@](O)(CC)[C@H](C)O4)O3)O2)[C@H](C)C[C@@H]1C [SAL, Salinomycin, reference compound]",,,,2.6 ± 0.1,,,,,,,,,,,,1 ± 0.1,1.2 ± 0.1,0.6 ± 0.1
CCC1(C2OC(C3OC(O)(Cn4cc(CNC(=O)CCC[P+](c5ccccc5)(c5ccccc5)c5ccccc5)nn4)C(C)CC3C)CC2C)CCC(C2(C)CCC3(CC(O)C(C)C(C(C)C(OC)C(C)C(=O)O)O3)O2)O1 (stereo not drawn) [2c],,1.0,2.3,13.9 ± 0.7,1.0,2.2,1.0,2.2,,1.4,3.0,0.8,1.8,1.0,2.3,13.9 ± 2.6,32.2 ± 1,14.5 ± 3.3
